According to patent publication US9943576B2 (priority 2014, dated 2018):

tested on: human uroepithelial cells; details: permeability enhancing vehicles tested with surrogate fluorescent gelatin and with TEM molecules

Substance | Typical Results
Big Chaps | Increase (Dose response)
Polyoxyethylene (20) oleoyl ether | Increase (Dose response)
SDS | Inhibited
Deoxy Big Chaps | Increase (Dose response)
Polyoxyethylene (10) oleoyl ether | Increase (Dose response)
